Measured affinities in a library of Ab-14 light chain variants

Values reported by Li et al. 2023, doi:10.1038/s41467-023-39022-2 (FLAb copy).

All variants were tested on one target, the spike HR2 peptide PDVDLGDISGINAS (SARS-CoV-2).

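Phage display of a naive human antibody library on the peptide gave the parent. Designed CDR sequences, proposed from the first random library and measured here. Group labels follow the data file (Ctrl: baseline library sampled from a position-specific scoring matrix, with some repeated check sequences; En: ensemble of fine-tuned language models; GP: Gaussian process model; HC: hill climbing; Gen: genetic algorithm; Gibbs: Gibbs sampling; a sequence that several methods proposed may carry one label only). The scFvs were displayed on barcoded MATa yeast, the peptide on MATalpha yeast. After mating in shaken culture at 30 °C for 16 h, diploids were selected and their barcode pairs sequenced. Scores were corrected for input abundance and mapped to Kd with protein pairs of known affinity run in the same pool. There are six technical replicates.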

Ab-14 is the parent antibody, in scFv form: VH, then the linker GGGGSGGGGSGGGGS, then VL. The heavy chain is unchanged in all variants.
VH: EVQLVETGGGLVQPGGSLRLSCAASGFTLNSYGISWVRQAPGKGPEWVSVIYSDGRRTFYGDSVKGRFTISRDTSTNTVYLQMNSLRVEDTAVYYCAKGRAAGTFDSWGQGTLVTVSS
VL: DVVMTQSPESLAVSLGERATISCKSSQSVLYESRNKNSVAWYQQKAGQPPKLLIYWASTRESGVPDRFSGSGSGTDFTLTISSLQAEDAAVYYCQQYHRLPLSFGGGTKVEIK

The parent's light chain CDRs are KSSQSVLYESRNKNSVA, WASTRES, QQYHRLPLS; each variant's own CDRs replace them letter for letter.
Affinities are written as log10 Kd with Kd in nM; a lower number is a better binder.
A mean of the replicates is given; it leaves out those without a signal.
Where no diploid with the target was found in any replicate, the entry reads "nd": below detection, most likely a poor binder, though not proof of it.
The authors averaged sequences with at least three values out of six and counted those with two or fewer as poor binders.
Nonspecific signal, from three strains lacking the peptide, appeared in 4% of pairings of all light chain designs, centred on 2.64 (5% of these signals below 1.59); values are not corrected for it. The control count says in how many pairings with the empty strains this scFv gave a signal.
Of ten entries with the parent sequence, four were seen in most replicates (averages 0.34 to 2.37), three in one and three in none, so single entries are noisy.
The range of this assay differs from that of the first round, and the authors advise against merging the two.

| CDR-L1 | CDR-L2 | CDR-L3 | group | mean log10 Kd (nM) | seen in | empty controls |
|---|---|---|---|---|---|---|
| NISQMFLMETKNVNNVA | QTNTRES | QDYHRLPLS | En_HC | -0.01 | 6 of 6 | 0 of 18 |
| KLSQSYCMGDRNKNSVA | QASTREQ | QQYHRLPLS | GP_Gibbs | 0.07 | 6 of 6 | 1 of 18 |
| KSSDSVLYESRNKNSVA | WASTRES | QQYHRLPLS | Ctrl | 2.11 | 4 of 6 | 0 of 18 |
| KFQQSVLYEDRVKNSVA | NASDRMS | QQYHRLPLS | GP_Gibbs | 0.16 | 6 of 6 | 0 of 18 |
| KSLQSQLYESRNKNSVA | HASTREQ | QQYHRLPLS | GP_HC | 0.39 | 6 of 6 | 0 of 18 |
| QSSQSVLYTSRNKNSVA | WASIRES | QQYHRLPLS | Ctrl | 2.25 | 1 of 6 | 1 of 18 |
| KLYNSTLYESRQKNSVA | WASTRES | QQYHRLPLS | GP_HC | 1.81 | 6 of 6 | 1 of 18 |
| KIGMTLNQLMHQKNNVA | DLVTREN | QQYHRLPLS | En_Gen | 0.49 | 6 of 6 | 1 of 18 |
| FLSQSVLYESRNKNSVA | NASTRCS | QQYHRLPLS | GP_Gen | -0.13 | 6 of 6 | 1 of 18 |
| KSSQSVPYESRSKNSVA | SASTRES | QQYHRLPLS | Ctrl | 0.75 | 6 of 6 | 1 of 18 |
| TISQVMNTLTRQGNNVA | DLQEREK | QQYFRLPLS | En_Gen | 0.60 | 6 of 6 | 0 of 18 |
| KLSQLVLYESRNKNSVA | GASTRES | QQYHRLPLS | GP_Gen | -0.33 | 6 of 6 | 0 of 18 |
| KSSQSKLRESRYKNSVA | WASTRES | QQGHRLPLS | Ctrl | nd | 0 of 6 | 1 of 18 |
| KITYMWTFESHNRNNIA | EESTRED | QSYHRLPLS | En_HC | 1.80 | 6 of 6 | 2 of 18 |
| KVRQSQLYESRNKNSVA | NASQRES | QQYHRLPLS | GP_Gen | -0.43 | 6 of 6 | 0 of 18 |
| KLEWSQLYWSRNVNSVA | NASTREE | QQYHRLPLS | GP_Gibbs | -0.29 | 6 of 6 | 2 of 18 |
| NVGQSMDGEYRNKNSVA | HQSTRED | QHYHRLPLS | En_HC | 1.79 | 6 of 6 | 0 of 18 |
| KSGCGVDYESRNKNSVA | GASTRES | QQYHRLPLS | GP_HC | 0.11 | 6 of 6 | 0 of 18 |
| KISQSVLYESRNKNSVA | WASTRES | QQYHYLPLS | Ctrl | 2.29 | 4 of 6 | 1 of 18 |
| KSSISELYESRNKNSVA | EASTREQ | QQYHRLPLS | GP_HC | -0.13 | 6 of 6 | 0 of 18 |
| KLSQITGHMSVSKNNVA | EMVTREN | QQYDRLPLS | En_Gen | 1.39 | 3 of 6 | 1 of 18 |
| KSCQSVLYESDNKNSVA | WASTRES | FQYERQPLS | Ctrl | nd | 0 of 6 | 0 of 18 |
| KITGMWTFESRNKNSIA | EESTRED | QSYHRLPLS | En_HC | 0.85 | 6 of 6 | 1 of 18 |
| KSQQGMDYESRNDASVA | AASTRES | QQYHRLPLS | GP_Gibbs | 0.55 | 4 of 6 | 0 of 18 |
| ILSQMLLTAGNKHNSVA | QANYRES | QQYHRLPLS | En_HC | 1.17 | 6 of 6 | 0 of 18 |
| KSSMSVLYESRNKNSVA | WASTRES | QQYMRLPLS | Ctrl | 1.37 | 6 of 6 | 1 of 18 |
| KQSQSFLYESRNSNSVA | DASQREQ | QQYHRLPLM | GP_Gibbs | -0.26 | 6 of 6 | 0 of 18 |
| KMVKAKSEGDRHAANVA | NANKATD | QQYYRLPLA | En_Gibbs | 0.28 | 6 of 6 | 1 of 18 |
| KSSQSVLYESLNKNSIA | WASTRES | QQYHWLPLS | Ctrl | 2.91 | 5 of 6 | 2 of 18 |
| KSSQSVLYESMNKNSVA | SASTREE | QQYHKLPLD | Ctrl | 2.06 | 6 of 6 | 0 of 18 |
| NIYQAMHTLSQMKDNVA | DVNERGN | QQYFRLPLS | En_Gen | nd | 0 of 6 | 0 of 18 |
| SFHEINMEGLATNANVA | NASQLFS | QHYFRLPLQ | En_Gibbs | 1.22 | 6 of 6 | 0 of 18 |
| HLGLVTMLEYAVRNNVA | NNSTREE | QQYDRLPLS | En_Gen | nd | 0 of 6 | 0 of 18 |
| KVSQSVLYESTNKNSVA | QASTRES | QQYHRLPLS | Ctrl | 0.16 | 6 of 6 | 1 of 18 |
| KIGGVTNGISRSKDSVA | EQSTRED | QQYDRLPLS | En_HC | 0.66 | 6 of 6 | 1 of 18 |
| HSSQSVKMESRNKNSVA | DASTRES | QQYHRLPLS | GP_HC | -0.11 | 6 of 6 | 0 of 18 |
| HVEHDWLLSNATMNAVA | NGATLAD | QQYGRLPLA | En_Gibbs | 1.07 | 6 of 6 | 1 of 18 |
| KLRQSTKYESRNQNSVA | WASTRLS | QQYHRLPLS | GP_HC | 1.41 | 6 of 6 | 3 of 18 |
| KAAQSWGYESRNKWSVA | NASTREK | QQYHRLPLS | GP_Gibbs | 0.34 | 6 of 6 | 1 of 18 |
| KLQQVTGYESYVRNSVA | QMSTRAE | QDYHRLPLS | En_HC | 0.49 | 6 of 6 | 1 of 18 |
| KLPFSCLYESRNKNSVA | MASQRCS | QQYHRLPLS | GP_Gibbs | 1.22 | 6 of 6 | 2 of 18 |
| KVTMYELEMEFNRSAVA | QAEVRAP | QQYWRLPLE | En_Gibbs | 1.16 | 6 of 6 | 1 of 18 |
| KLVNFMNRGTHHTSNIA | DAQDRID | QQYARLPLA | En_Gen | 0.52 | 6 of 6 | 2 of 18 |
| QVQAFNEHLKDQTQAMA | EATMRDQ | QQYERLPLS | En_Gibbs | 0.69 | 6 of 6 | 1 of 18 |
| KSSQSLLYEDRNKNSVA | WASTLES | QQYHRLPLS | Ctrl | 1.05 | 6 of 6 | 1 of 18 |
| KLQQSWWYESRNKNSVA | NASTRES | QQYHRLPLS | GP_Gen | 1.07 | 6 of 6 | 1 of 18 |
| QLLTGVTENAKNGKAIA | NHELKAQ | QQYFRLPFS | En_Gibbs | 0.52 | 6 of 6 | 1 of 18 |
| KLSGLMASSKFAKDNVA | ENNTRED | QQYERLPLS | En_Gen | 1.76 | 3 of 6 | 2 of 18 |
| KLSQSVEYESRNKNNVA | HASTRES | QQYHRLPLS | GP_Gen | -0.07 | 6 of 6 | 3 of 18 |
| KSSNSVLDESKNKNSVA | WASTRES | QQYMRLPLS | Ctrl | 1.47 | 6 of 6 | 1 of 18 |
| MIAAGLKGVGRNKNSVA | NAQTRES | QHYHRLPLS | En_HC | 3.41 | 3 of 6 | 0 of 18 |
| KKSQPVLYESRNKNSVA | KASTRCS | QQYGRLPVS | Ctrl | nd | 0 of 6 | 0 of 18 |
| KVSQSYLYESRNKNSVA | NASTRES | QQYHRLPLS | GP_Gen | -0.32 | 6 of 6 | 0 of 18 |
| KSSQSVLYESSNGNSVA | WASTRES | QQYHRLPLS | Ctrl | 1.60 | 3 of 6 | 0 of 18 |
| TVSQVHGMLSHNKNSVA | DMNTRGQ | QQYDRLPLS | En_HC | 0.59 | 6 of 6 | 0 of 18 |
| KLSQSDLYESRNKNSVA | EASTRES | QQYHRLPLS | GP_Gen | -0.36 | 6 of 6 | 0 of 18 |
| KISFNFLIESRNLNSVA | EMTTREY | QDYDRLPLS | En_HC | nd | 0 of 6 | 0 of 18 |
| KLLQTVMNETRNRNNVA | HMTTRED | QQYHTLPLS | En_HC | 1.75 | 4 of 6 | 1 of 18 |
| KLDQSVLGGSRNKNSVA | HANQRES | QQYHRLPLY | GP_Gibbs | 1.98 | 6 of 6 | 1 of 18 |
| KVSEFMRGLMSRQDSIA | DNVTRSN | QQYDRLPLS | En_Gen | 1.89 | 1 of 6 | 1 of 18 |
| KESKSVLYESRNKNSVA | WASTRES | QQYSRLPLS | Ctrl | 2.81 | 1 of 6 | 0 of 18 |